Earlier results in US7208580B2, “Atomic structure of the hemalbumin complex and its use in designing therapeutic compounds” (New Century Pharmaceuticals, Inc., priority 2002, dated 2007).

Conditions: native (unmodified) complex; 'long been established'

native hemalbumin complex: complex of hemin and human serum albumin combined in a 1:1 molar ratio
activity as an oxygen binding protein: inactive
